Data reported in ChEMBL document CHEMBL1759940, “Synthesis and anticonvulsant activity of 8-alkoxy-5,6-dihydro-4H-[1,2,4]triazolo[4,3-a][1]benzazepin-1-one derivatives” (Eur J Med Chem, 2011).

Species on record: Mus musculus
Experiment: Protective index, ratio of TD50 for Swiss mouse to ED50 for Swiss mouse by maximal electroshock-induced seizures test
Assay type: functional
Method in brief: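 Protective index was calculated as TD50 (rotarod neurotoxicity) divided by ED50 (MES protection). Both values came from i.p. dosing in Swiss mice, using groups of 10 per dose, and were computed by the trimmed Spearman-Karber method.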

NC(=O)N1c2ccccc2C=Cc2ccccc21 [CARBAMAZEPINE]
PI: 8.1
